# Test results published in publication PMC10012049, “Synthesis, α-mannosidase inhibition studies and molecular modeling of 1,4-imino-ᴅ-lyxitols and their C-5-altered N-arylalkyl derivatives” (Beilstein Journal of Organic Chemistry, 2023).
# Protein sequences, listed by entry. Tags and fused reporters are not part of them.
# UniProt Q2PJ74, entry or part of it: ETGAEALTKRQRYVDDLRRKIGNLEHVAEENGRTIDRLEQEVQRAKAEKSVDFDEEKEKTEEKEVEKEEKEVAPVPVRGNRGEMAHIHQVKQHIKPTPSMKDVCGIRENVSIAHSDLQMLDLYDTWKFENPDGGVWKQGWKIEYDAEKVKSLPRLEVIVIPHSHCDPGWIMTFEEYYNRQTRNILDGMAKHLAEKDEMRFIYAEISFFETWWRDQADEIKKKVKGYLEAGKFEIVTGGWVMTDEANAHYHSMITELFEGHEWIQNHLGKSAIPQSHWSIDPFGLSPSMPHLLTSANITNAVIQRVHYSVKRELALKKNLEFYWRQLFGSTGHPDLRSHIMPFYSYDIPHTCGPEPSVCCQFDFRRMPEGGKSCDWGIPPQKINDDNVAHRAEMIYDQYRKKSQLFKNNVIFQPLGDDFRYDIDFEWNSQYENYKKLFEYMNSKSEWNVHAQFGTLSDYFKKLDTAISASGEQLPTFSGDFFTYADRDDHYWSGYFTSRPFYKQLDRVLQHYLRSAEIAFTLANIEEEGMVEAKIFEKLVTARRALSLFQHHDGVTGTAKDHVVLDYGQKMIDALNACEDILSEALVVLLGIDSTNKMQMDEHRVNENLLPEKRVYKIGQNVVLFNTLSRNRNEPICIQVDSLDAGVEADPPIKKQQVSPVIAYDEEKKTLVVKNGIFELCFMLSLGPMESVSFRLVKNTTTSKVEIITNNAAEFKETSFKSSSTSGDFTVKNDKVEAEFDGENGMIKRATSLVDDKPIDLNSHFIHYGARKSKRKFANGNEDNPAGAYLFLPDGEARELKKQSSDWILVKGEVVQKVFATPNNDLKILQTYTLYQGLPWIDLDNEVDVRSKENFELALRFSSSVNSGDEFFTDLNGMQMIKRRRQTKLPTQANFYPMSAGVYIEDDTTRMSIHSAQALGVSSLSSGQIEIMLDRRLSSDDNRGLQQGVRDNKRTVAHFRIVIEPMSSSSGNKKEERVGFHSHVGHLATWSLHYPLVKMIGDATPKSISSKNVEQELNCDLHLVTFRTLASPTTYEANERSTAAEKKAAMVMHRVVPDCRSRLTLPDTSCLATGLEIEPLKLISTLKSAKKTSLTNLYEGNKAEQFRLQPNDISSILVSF
# UniProt Q9VF33, entry or part of it: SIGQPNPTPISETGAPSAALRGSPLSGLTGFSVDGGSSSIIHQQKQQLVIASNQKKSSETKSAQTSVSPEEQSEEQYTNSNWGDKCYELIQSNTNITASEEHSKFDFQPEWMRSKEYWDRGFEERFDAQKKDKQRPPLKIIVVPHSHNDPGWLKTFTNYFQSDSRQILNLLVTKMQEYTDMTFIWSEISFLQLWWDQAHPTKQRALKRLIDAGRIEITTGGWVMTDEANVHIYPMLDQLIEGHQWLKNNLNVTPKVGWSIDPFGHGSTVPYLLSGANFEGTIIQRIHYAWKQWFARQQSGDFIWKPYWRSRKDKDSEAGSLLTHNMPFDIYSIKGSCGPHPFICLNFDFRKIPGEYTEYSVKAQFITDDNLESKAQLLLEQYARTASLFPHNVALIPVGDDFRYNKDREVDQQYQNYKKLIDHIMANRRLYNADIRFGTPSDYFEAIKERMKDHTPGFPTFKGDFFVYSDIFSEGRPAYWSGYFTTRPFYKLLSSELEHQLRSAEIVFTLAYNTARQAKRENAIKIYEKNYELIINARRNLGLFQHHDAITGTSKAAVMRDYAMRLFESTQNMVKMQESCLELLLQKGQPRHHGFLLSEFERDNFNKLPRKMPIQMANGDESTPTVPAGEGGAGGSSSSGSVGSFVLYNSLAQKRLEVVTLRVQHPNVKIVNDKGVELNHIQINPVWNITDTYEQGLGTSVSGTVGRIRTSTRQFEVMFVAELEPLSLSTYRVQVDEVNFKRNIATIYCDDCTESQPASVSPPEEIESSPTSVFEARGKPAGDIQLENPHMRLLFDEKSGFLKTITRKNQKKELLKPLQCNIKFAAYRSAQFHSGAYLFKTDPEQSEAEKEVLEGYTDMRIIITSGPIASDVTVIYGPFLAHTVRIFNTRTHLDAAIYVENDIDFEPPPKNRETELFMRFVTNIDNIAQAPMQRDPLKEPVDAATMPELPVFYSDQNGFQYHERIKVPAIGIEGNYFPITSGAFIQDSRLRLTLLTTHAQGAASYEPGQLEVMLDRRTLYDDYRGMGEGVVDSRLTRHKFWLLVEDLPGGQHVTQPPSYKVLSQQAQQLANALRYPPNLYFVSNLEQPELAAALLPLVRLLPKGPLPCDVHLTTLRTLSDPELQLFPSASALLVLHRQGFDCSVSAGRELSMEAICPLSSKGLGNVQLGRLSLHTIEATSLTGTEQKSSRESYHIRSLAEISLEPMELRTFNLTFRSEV
# UniProt Q9VKV1, entry or part of it: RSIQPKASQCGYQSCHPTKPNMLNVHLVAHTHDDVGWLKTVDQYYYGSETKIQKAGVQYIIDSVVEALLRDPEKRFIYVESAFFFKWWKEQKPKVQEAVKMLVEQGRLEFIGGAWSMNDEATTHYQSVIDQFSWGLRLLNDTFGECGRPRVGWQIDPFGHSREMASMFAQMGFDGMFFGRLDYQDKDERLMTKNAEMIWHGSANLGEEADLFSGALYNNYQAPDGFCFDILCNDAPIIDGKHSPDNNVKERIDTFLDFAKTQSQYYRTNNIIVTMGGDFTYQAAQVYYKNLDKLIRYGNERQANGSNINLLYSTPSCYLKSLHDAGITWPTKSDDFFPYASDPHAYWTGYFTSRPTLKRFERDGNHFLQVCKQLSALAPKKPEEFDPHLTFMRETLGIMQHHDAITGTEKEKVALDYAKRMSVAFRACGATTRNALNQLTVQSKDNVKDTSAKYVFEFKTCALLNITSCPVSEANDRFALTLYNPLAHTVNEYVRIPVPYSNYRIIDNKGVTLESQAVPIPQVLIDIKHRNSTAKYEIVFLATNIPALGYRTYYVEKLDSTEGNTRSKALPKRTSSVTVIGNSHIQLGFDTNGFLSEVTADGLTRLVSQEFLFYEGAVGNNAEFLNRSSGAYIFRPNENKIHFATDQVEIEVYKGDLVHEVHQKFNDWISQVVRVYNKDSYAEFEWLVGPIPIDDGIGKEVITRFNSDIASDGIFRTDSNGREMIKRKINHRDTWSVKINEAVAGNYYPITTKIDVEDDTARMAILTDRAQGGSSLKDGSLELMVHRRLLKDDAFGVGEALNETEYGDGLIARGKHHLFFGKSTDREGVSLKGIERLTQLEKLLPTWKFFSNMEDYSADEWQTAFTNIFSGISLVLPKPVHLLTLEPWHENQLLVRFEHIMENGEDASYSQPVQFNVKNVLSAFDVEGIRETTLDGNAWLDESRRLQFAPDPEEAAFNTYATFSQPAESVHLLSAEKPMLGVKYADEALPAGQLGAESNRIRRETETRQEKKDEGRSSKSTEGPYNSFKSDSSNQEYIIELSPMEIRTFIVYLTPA
# Legend:
# [1] = biological target: T1, AMAN-2 (Golgi α-mannosidase II) (Caenorhabditis elegans, UniProt Q2PJ74); assay: α-mannosidase inhibition assay with pNP-Man substrate, AMAN-2; type: biochemical; conditions: ratio of Ki values
# From the text: The enzymes screened included two Golgi types (GMIIb and AMAN-2) and two lysosomal types (LManII and JBMan) (Table 1).
# Recombinant soluble forms of Drosophila melanogaster Golgi (GMIIb) and lysosomal (LManII) α-mannosidases as well as Caenorhabditis elegans Golgi α-mannosidase AMAN-2 were produced in Pichia pastoris and enriched by ammonium sulfate precipitation or nickel chelation chromatography as previously described. The α-mannosidase from Canavalia ensiformis (JBMan) was purchased from Sigma. The mannosidase activity of these enzyme preparations were measured using p-nitrophenyl α -D-mannopyranoside ( pNP-Man; Sigma; 100 mM stock in dimethylsulfoxide) as a substrate at 2 mM final concentration in 50 mM acetate buffer of the relevant previously defined optimal pH, GMIIb and AMAN -2 at pH 6.0, LManII at pH 5.2 , and JBMan at pH 5.0) and 0.5 μL of the enzyme (0.05 µg of protein for JBMan), in a total volume of 50 μL for 1–2 h at 37 °C. GMIIb was assayed in the presence of 0.5 mM CoCl2.
# The lyophilized derivatives used in the assay were dissolved in DMSO to the final concentration 50 mM and further diluted to a desired concentration in water. […] The reactions were terminated with two volumes (0.1 mL) of 0.5 M sodium carbonate and the production of p-nitrophenol was measured at 405 nm using a multimode reader Mithras LB943 (Berthold Technologies). […]
# [2] = biological target: GMIIb (Golgi α-mannosidase) (Drosophila melanogaster, UniProt Q9VF33); conditions: ref Nemčovičová et al. [35]; cited from earlier work
# [3] = biological target: T1, AMAN-2 (Golgi α-mannosidase II); conditions: estimated from the reported 45% inhibition at 10 nM; ref Paschinger et al. [36]; cited from earlier work
# [4] = biological target: LManII (lysosomal α-mannosidase) (Drosophila melanogaster, UniProt Q9VKV1); conditions: ref Nemčovičová et al. [35]; cited from earlier work
# [5] = biological target: T2, JBMan (Jack bean α-mannosidase) (Canavalia ensiformis, UniProt C0HJB3); conditions: ref Poláková et al. [38]; cited from earlier work
# T2 construct: purchased Sigma
# T2 sequence (C0HJB3 1-981): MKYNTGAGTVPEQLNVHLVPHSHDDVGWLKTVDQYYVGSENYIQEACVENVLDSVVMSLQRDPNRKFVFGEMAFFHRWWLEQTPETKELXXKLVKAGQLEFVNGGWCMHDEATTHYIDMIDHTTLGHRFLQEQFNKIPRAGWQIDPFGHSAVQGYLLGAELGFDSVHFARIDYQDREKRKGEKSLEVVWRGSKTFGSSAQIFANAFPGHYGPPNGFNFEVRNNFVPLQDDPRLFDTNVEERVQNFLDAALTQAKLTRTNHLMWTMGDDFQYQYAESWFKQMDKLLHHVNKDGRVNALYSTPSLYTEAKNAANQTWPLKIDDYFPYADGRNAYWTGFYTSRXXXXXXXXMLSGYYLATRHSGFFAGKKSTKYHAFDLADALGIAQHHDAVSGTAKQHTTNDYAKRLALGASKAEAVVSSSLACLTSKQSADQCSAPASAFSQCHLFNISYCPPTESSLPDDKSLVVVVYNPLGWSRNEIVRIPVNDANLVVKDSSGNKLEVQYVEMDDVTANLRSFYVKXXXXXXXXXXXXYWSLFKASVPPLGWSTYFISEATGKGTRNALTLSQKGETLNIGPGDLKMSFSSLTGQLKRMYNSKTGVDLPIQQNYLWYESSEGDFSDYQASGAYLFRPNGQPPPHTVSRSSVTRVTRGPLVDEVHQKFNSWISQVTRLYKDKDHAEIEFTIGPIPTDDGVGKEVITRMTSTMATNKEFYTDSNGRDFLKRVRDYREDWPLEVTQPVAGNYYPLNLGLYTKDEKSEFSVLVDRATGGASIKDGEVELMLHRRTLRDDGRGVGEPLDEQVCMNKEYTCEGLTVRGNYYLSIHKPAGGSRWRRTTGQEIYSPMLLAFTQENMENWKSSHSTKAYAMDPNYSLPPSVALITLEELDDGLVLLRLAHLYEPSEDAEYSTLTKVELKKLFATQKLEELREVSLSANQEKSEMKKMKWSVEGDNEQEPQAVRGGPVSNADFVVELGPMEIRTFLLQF
smiles,measurement,setting,value
"O[C@H]1[C@H]2[C@H](O)CCCN2C[C@H]1O [swainsonine, (−)-swainsonine]","Selectivity index, SI [Ki (JBMan)/Ki (AMAN-2)]",[1],20
same,Ki,[2],2.7 nM
same,IC50,[3],10 nM
same,IC50,[4],12 nM
same,Ki,[4],7.1 nM
same,IC50,[5],200 nM
